Literature values as cited in publication PMC4408839.

Protein sequences, listed by entry. Tags and fused reporters are not part of them. Residues count along the entry.
UniProt O88917, 25-1515: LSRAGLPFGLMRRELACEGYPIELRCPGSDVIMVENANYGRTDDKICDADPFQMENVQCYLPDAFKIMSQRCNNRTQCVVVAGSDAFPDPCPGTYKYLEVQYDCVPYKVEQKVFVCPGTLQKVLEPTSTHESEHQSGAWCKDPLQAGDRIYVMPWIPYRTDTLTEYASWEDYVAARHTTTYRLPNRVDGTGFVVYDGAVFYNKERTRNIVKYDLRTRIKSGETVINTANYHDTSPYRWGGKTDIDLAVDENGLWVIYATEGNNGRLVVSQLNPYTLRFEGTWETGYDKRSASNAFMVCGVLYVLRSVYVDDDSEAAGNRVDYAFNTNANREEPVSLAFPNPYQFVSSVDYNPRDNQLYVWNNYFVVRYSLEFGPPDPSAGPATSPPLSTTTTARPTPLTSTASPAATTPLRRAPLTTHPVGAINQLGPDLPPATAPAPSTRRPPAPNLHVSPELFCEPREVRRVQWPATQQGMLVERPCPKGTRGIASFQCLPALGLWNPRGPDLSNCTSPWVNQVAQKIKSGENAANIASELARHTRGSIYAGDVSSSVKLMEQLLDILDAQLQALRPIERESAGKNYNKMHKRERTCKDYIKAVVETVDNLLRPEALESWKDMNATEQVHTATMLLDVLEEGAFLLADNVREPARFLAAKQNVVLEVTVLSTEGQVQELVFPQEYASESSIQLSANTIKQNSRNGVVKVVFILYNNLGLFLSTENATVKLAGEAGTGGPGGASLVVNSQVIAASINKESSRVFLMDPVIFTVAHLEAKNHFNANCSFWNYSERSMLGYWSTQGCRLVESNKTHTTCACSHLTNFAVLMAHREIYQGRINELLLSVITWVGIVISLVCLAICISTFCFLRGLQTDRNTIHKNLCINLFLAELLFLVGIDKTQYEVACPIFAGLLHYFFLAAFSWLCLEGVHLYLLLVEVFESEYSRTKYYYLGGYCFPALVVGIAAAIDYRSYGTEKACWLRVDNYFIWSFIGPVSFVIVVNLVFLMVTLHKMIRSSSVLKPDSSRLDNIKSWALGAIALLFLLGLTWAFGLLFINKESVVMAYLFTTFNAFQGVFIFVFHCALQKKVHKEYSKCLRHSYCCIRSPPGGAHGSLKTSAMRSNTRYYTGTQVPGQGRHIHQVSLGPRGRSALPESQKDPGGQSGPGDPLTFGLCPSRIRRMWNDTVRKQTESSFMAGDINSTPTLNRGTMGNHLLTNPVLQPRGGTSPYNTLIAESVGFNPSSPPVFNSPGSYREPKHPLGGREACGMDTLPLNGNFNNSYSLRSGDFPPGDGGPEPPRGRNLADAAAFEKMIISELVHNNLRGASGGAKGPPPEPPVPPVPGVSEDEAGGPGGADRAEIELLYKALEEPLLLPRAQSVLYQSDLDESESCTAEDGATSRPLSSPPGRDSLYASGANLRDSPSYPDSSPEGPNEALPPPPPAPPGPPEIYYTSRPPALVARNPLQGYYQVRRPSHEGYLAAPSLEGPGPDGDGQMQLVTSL

Molecular target: latrophilin-1 (Rattus norvegicus) (UniProt O88917)

Kd: < 2 nM
Substance: teneurin-2 (from UniProt Q9NT68)
